The source of these data is PubChem BioAssay AID1556 (The Scripps Research Institute Molecular Screening Center, 2009).

This is a selection; strong and weak results do not stand in their true shares. The source made the active and inactive calls.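 The calls were made as follows: active = inhibition above the mean plus 3 SD of all compounds in the same screening run (cut at about 4.5% in these data); inactive = the rest.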

This test relates to metallo-beta-lactamase IMP-1 (Pseudomonas aeruginosa). The experiment in a line: inhibition of IMP-1 nitrocefin hydrolysis – biochemical, epi-absorbance readout, Pseudomonas aeruginosa enzyme, primary screen (AID 1556).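 Also: 0% = IMP-1 with DMSO and 100% = DMSO wells lacking enzyme.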 The following applies: purified IMP-1, nitrocefin hydrolysis, epi-absorbance fluorescence; at 5.6 µM; hits give high values.
For the compound `Cc1cccc(C)c1OP(C)(=O)Nc1ccc(SC(F)(F)F)cc1` (stereo not given), the inhibition is inactive: 2.57%.
As for `CP(=O)(Nc1ccccc1Br)Oc1ccccc1` (stereo not given), the figure is inactive: -1.3%.
With `COc1ccccc1OP(C)(=O)Nc1ccccc1` (stereo not given), the inhibition is inactive: -2.66%.
As to `CP(=S)(Nn1cnnc1)Oc1ccccc1` (stereo not given), the inhibition was inactive: -1.79%.
`CP(=O)(Nc1ccc(SC(F)(F)F)cc1)Oc1ccccc1` (stereo not given): the inhibition is inactive: -2.2%.
As for `CCCOc1ccc(NP(C)(=O)Oc2ccc(Cl)cc2)cc1` (stereo not given), the figure is inactive: -1.33%.
As for `CN1CCCCC1COC(=O)C1(O)c2ccccc2CCc2ccccc21` (stereo not given), the figure is inactive: -1.86%.
The same measure for `COc1ccccc1OP(C)(=O)Nc1c(C)cccc1C` (stereo not given): inactive: -2.81%; for `CCOC(=O)C(CC)C1=NC(C)(C)Cc2ccccc21.O=[N+]([O-])c1cc([N+](=O)[O-])c(O)c([N+](=O)[O-])c1` (stereo not given): inactive: -1.73%; for `O=[N+]([O-])c1cc([N+](=O)[O-])c(Nc2nnnn2CCO)c([N+](=O)[O-])c1`: inactive: -4.05%.
With `Cc1nc2ccc3ccccc3c2s1.O=[N+]([O-])c1cc([N+](=O)[O-])c(O)c([N+](=O)[O-])c1`, the inhibition is active: 19.2%.
For the compound `O=[N+]([O-])c1cc([N+](=O)[O-])c(-n2nnc3ccccc32)c([N+](=O)[O-])c1`, the inhibition was inactive: -3.67%.
As for `Cc1ccc(C)c(NP(C)(=O)Oc2ccccc2)c1` (stereo not given), the figure is inactive: -2.05%; as for `CP(=O)(Nc1cccc(Br)c1)Oc1ccccc1` (stereo not given), inactive: -2.76%.
The same measure for `Cc1cc(C)cc(OP(C)(=O)Nc2ccccn2)c1` (stereo not given): inactive: -2.07%; for `CCOC(=O)c1ccc(NP(C)(=O)Oc2cc(C)cc(C)c2)cc1` (stereo not given): inactive: -3.25%.
Consider `Cc1cc(C)cc(OP(C)(=O)Nc2ccc(C)cc2C)c1` (stereo not given), for which the inhibition is inactive: -0.3%.
Regarding `COc1ccccc1OP(C)(=O)Nc1cccc(Br)c1` (stereo not given), the inhibition is inactive: -4.95%.
With `CC1=NCCc2c1[nH]c1ccccc21.O=[N+]([O-])c1cc([N+](=O)[O-])c(O)c([N+](=O)[O-])c1`, the inhibition was inactive: -3.3%.
In the case of `O=C(O)c1cccc(Nc2c([N+](=O)[O-])cc([N+](=O)[O-])cc2[N+](=O)[O-])c1`, the inhibition is inactive: 0.64%.
